Yeast mating assay B: variants of the scFv Ab-14

Source: Li et al. 2023 (doi:10.1038/s41467-023-39022-2), MIT Lincoln Laboratory and A-Alpha Bio; data file from the FLAb repository.

Binding partner: SARS-CoV-2 spike HR2 peptide, sequence PDVDLGDISGINAS.

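The starting antibody came from a phage panning campaign against this peptide. The variants were designed computationally from a first round of random CDR variants and then made and measured. Several design methods are mixed in this list. The scFvs were displayed on barcoded MATa yeast, the peptide on MATalpha yeast. After mating in shaken culture at 30 °C for 16 h, diploids were selected and their barcode pairs sequenced. Scores were corrected for input abundance and mapped to Kd with protein pairs of known affinity run in the same pool. The assay was run in six technical replicates.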

Parent scFv Ab-14: VH joined to VL by three GGGGS repeats. Changes lie in the heavy chain CDRs alone.
VH: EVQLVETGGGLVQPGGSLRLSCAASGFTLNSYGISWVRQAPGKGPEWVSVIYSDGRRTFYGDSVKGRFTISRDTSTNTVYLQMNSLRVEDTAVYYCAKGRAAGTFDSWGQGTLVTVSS
VL: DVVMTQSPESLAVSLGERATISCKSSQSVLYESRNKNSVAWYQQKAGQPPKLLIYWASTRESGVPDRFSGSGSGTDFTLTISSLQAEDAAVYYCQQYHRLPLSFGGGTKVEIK

The parent's heavy chain CDRs are GFTLNSYGIS, VIYSDGRRTFYGDSVK, GRAAGTFDS; each variant's own CDRs replace them letter for letter.
Values are log10 of the apparent Kd in nM; lower means stronger binding.
An entry "n.d." has no value in the source: the pair was not observed among the diploids in that replicate. This suggests poor binding but is not conclusive.

{"CDR-H1": "GFSLNWYGIS", "CDR-H2": "VIYSDGRRTFYSDSVK", "CDR-H3": "GRTAGTFDS", "replicates, log10 nM": "0.84 2.09 1.50 2.13 1.27 2.56", "signal with controls": "0 of 18"}
{"CDR-H1": "GFDLNSYGIS", "CDR-H2": "VIYSDGRRTFYGDRVK", "CDR-H3": "GKQAGTFDS", "replicates, log10 nM": "0.55 0.83 0.64 0.70 1.26 0.45", "signal with controls": "0 of 18"}
{"CDR-H1": "GFTLNSYGIS", "CDR-H2": "VIYSDGCRTFYIDSVK", "CDR-H3": "GQAAGTFDS", "replicates, log10 nM": "n.d. n.d. n.d. n.d. n.d. n.d.", "signal with controls": "0 of 18"}
{"CDR-H1": "GFDLNSYGIS", "CDR-H2": "VIYSDGRRTFYADRVK", "CDR-H3": "GRTAGTFDT", "replicates, log10 nM": "0.86 -0.29 -0.50 -0.52 -0.49 0.37", "signal with controls": "0 of 18"}
{"CDR-H1": "GFDLNEYGIS", "CDR-H2": "VIYADGRRTFYTDSVK", "CDR-H3": "GANAGTFDS", "replicates, log10 nM": "0.05 -0.08 -0.94 -0.47 -0.15 -0.60", "signal with controls": "0 of 18"}
{"CDR-H1": "KFTLSSYGIS", "CDR-H2": "VIYSDGMRTAYGDSVK", "CDR-H3": "GRAAGTFDS", "replicates, log10 nM": "n.d. n.d. n.d. n.d. n.d. n.d.", "signal with controls": "0 of 18"}
{"CDR-H1": "GFDLESYGIS", "CDR-H2": "VIYADGRRTFYADKVK", "CDR-H3": "GNNAGTFDI", "replicates, log10 nM": "0.80 0.03 0.89 1.55 0.57 0.58", "signal with controls": "1 of 18 (1.72)"}
{"CDR-H1": "GFTLNSYGIS", "CDR-H2": "VIYSDGRRTFYGDSVK", "CDR-H3": "GRSAGTFNS", "replicates, log10 nM": "n.d. n.d. n.d. n.d. n.d. n.d.", "signal with controls": "0 of 18"}
{"CDR-H1": "GFDLQDYGIS", "CDR-H2": "VIYADGVRTAYVNNVK", "CDR-H3": "GKWGATLSV", "replicates, log10 nM": "n.d. n.d. n.d. n.d. n.d. n.d.", "signal with controls": "0 of 18"}
{"CDR-H1": "GFTLNSYGIS", "CDR-H2": "VIYSDGHRTFYDDSVK", "CDR-H3": "GQIAGTFDS", "replicates, log10 nM": "1.82 n.d. n.d. -0.04 1.01 0.02", "signal with controls": "0 of 18"}
{"CDR-H1": "GFTLNQYGIS", "CDR-H2": "VIYSDGMRTFYSDSVK", "CDR-H3": "GREAGTFDS", "replicates, log10 nM": "-0.09 -0.16 -0.01 -0.14 -0.17 -0.29", "signal with controls": "0 of 18"}
{"CDR-H1": "GFDLDEYGIS", "CDR-H2": "VIYADGMRTAYSDSVK", "CDR-H3": "GNTAGTFDV", "replicates, log10 nM": "-0.06 -0.56 -0.37 -0.43 -0.69 -0.14", "signal with controls": "0 of 18"}
{"CDR-H1": "GFDLDEYGIS", "CDR-H2": "VIYADGVRTAYADSVK", "CDR-H3": "GNNAGTFDQ", "replicates, log10 nM": "0.16 0.07 -0.22 -0.21 -0.14 -0.23", "signal with controls": "0 of 18"}
{"CDR-H1": "GFDLNEYGIS", "CDR-H2": "VIYADGMRTAYAESVK", "CDR-H3": "GNQAGTFDV", "replicates, log10 nM": "-0.36 -1.62 -0.92 -0.85 -0.42 -0.90", "signal with controls": "0 of 18"}
{"CDR-H1": "GFELNSYGIS", "CDR-H2": "VIYSDGRRTFYGDNVK", "CDR-H3": "GETAGTFDS", "replicates, log10 nM": "0.03 1.05 0.21 -0.04 0.23 0.34", "signal with controls": "1 of 18 (1.86)"}
{"CDR-H1": "GFSLNDYGIS", "CDR-H2": "VIYSDGRRTFYGDSVK", "CDR-H3": "GRMAGTFDA", "replicates, log10 nM": "0.11 -0.23 0.35 0.17 0.29 0.58", "signal with controls": "0 of 18"}
{"CDR-H1": "GFDLEDYGIS", "CDR-H2": "VIYADGMRTAYSDSVK", "CDR-H3": "GNVAGTFDI", "replicates, log10 nM": "0.27 -0.66 -0.10 -1.04 -0.03 -1.40", "signal with controls": "0 of 18"}
{"CDR-H1": "GFSLNSYGIS", "CDR-H2": "VIYSDGRRTFYGDSVK", "CDR-H3": "GRSAGTFDS", "replicates, log10 nM": "1.90 0.76 0.87 0.95 1.42 1.36", "signal with controls": "1 of 18 (2.73)"}
{"CDR-H1": "GFTLNSYGIQ", "CDR-H2": "VIYSDGRRTFYADSVK", "CDR-H3": "GRAIGTFDS", "replicates, log10 nM": "n.d. n.d. n.d. n.d. n.d. n.d.", "signal with controls": "0 of 18"}
{"CDR-H1": "GFTLNDYGIS", "CDR-H2": "VIYSDGRRTFYTDSVK", "CDR-H3": "GREAGTFDV", "replicates, log10 nM": "0.32 0.42 0.24 -0.25 0.14 0.61", "signal with controls": "0 of 18"}
{"CDR-H1": "GFTLNSYGIS", "CDR-H2": "VIYSDGRRTFYGDSVK", "CDR-H3": "GRAYGPVDS", "replicates, log10 nM": "n.d. n.d. n.d. n.d. n.d. n.d.", "signal with controls": "0 of 18"}
{"CDR-H1": "GFDLESYGIS", "CDR-H2": "VIYADGRRKAYHDSVK", "CDR-H3": "GTNGSVSFV", "replicates, log10 nM": "n.d. n.d. n.d. n.d. n.d. n.d.", "signal with controls": "2 of 18 (1.87)"}
{"CDR-H1": "GFTLNDYGIA", "CDR-H2": "VIYSDGRRTQYIFSVK", "CDR-H3": "GRAATTFDS", "replicates, log10 nM": "n.d. n.d. n.d. n.d. n.d. n.d.", "signal with controls": "0 of 18"}
{"CDR-H1": "GFCLNSYGIS", "CDR-H2": "VIYSDGRRNFYGDSVK", "CDR-H3": "GRAAGTFDI", "replicates, log10 nM": "n.d. n.d. n.d. n.d. n.d. n.d.", "signal with controls": "0 of 18"}
{"CDR-H1": "GFDLDEYGIS", "CDR-H2": "VIYADGRRTAYSDSVK", "CDR-H3": "GNEAGTFDV", "replicates, log10 nM": "n.d. -0.23 n.d. n.d. -0.08 -1.08", "signal with controls": "0 of 18"}
{"CDR-H1": "GFSLNSYGIS", "CDR-H2": "VIYSDGRRTFYGDPVK", "CDR-H3": "GKTAGTFDS", "replicates, log10 nM": "1.05 1.63 2.14 1.05 1.20 1.31", "signal with controls": "0 of 18"}
{"CDR-H1": "GLVLNSYGIS", "CDR-H2": "VIYSDGRRNFYGDSVK", "CDR-H3": "GRAAGTFDS", "replicates, log10 nM": "n.d. n.d. n.d. n.d. n.d. n.d.", "signal with controls": "0 of 18"}
{"CDR-H1": "GFNLNQYGLS", "CDR-H2": "VIYSDGRRTFYADSVK", "CDR-H3": "GRAAGTFRS", "replicates, log10 nM": "n.d. n.d. n.d. n.d. n.d. n.d.", "signal with controls": "1 of 18 (1.51)"}
{"CDR-H1": "FFTLNEYGIS", "CDR-H2": "VIYSDGRRTFYADSVK", "CDR-H3": "GRTAGTFDS", "replicates, log10 nM": "1.06 1.89 0.64 0.06 0.54 1.00", "signal with controls": "0 of 18"}

Extract of 3 entries:

{"CDR-H1": "GFDLNEYGIS", "CDR-H2": "VIYADGMRTAYAESVK", "CDR-H3": "GNQAGTFDV", "replicates, log10 nM": "-0.36 -1.62 -0.92 -0.85 -0.42 -0.90", "signal with controls": "0 of 18"}
{"CDR-H1": "GFDLNSYGIS", "CDR-H2": "VIYSDGRRTFYADRVK", "CDR-H3": "GRTAGTFDT", "replicates, log10 nM": "0.86 -0.29 -0.50 -0.52 -0.49 0.37", "signal with controls": "0 of 18"}
{"CDR-H1": "GFTLNSYGIS", "CDR-H2": "VIYSDGCRTFYIDSVK", "CDR-H3": "GQAAGTFDS", "replicates, log10 nM": "n.d. n.d. n.d. n.d. n.d. n.d.", "signal with controls": "0 of 18"}

A sequence measured in both rounds can read differently, since the two assays cover different ranges.
The authors averaged sequences with at least three values out of six and counted those with two or fewer as poor binders.
Nonspecific signal, from three strains lacking the peptide, appeared in 1% of pairings of all heavy chain designs, centred on 2.08 (5% of these signals below 0.84); values are not corrected for it. For each scFv, signals with the empty controls are counted beside the result, with their mean in brackets.
The parent sequence was in this pool as ten entries: three were never detected, three once, and four in most replicates, with averages from 0.34 to 2.37.